From US10815210B2, “Benzocyclobutane derivatives useful as dual SGLT1 / SGLT2 modulators” (Janssen Pharmaceutica NV, priority 2016, dated 2020)

Biological target: T1, human SGLT2 (Homo sapiens, UniProt P31639)
T1 construct: expressed in transfected cells; host or cells: CHO-K1
T1 sequence (P31639 1-672): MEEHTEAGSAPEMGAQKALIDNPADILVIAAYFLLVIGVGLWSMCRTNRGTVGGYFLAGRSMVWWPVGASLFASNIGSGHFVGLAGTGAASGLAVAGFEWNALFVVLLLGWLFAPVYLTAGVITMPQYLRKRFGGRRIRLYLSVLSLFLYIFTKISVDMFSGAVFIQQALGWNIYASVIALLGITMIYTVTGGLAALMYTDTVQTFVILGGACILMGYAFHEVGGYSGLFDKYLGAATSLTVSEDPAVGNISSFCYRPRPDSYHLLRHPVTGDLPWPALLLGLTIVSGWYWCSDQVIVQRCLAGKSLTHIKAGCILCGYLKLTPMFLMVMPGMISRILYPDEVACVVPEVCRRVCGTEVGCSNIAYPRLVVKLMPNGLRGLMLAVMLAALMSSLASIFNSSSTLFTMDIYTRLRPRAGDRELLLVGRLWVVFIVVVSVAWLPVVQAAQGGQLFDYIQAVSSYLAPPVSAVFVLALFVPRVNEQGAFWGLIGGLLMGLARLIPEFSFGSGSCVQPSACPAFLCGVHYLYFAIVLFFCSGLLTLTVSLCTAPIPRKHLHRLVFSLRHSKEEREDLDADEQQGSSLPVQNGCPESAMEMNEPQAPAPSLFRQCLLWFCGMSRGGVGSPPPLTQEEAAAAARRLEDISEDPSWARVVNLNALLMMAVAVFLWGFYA
Test: SGLT2 assay: Na-dependent 14C-AMG uptake in CHO-K1 cells stably expressing human SGLT2
Assay type: cell-based
Settings: 500 μM AMG, 2 hours at 37° C.
Description: SGLT1 and SGLT2 were cloned in form of cDNA from human small intestine (Genbank M24847), and from human kidney (Genbank M95549), respectively. Subsequently, each full cDNA was subcloned into pcDNA with each construct's integrity verified through follow-on sequencing. To generate CHO-K1 cells that stably express human SGLT1 or human SGLT2, CHO-K1 cells were transfected using DMRIE-C reagent (Life Technologies, Gaithersburg, Md.). Transfected cells were then selected in the presence of 500 μg/ml of the Geneticin (G418 Cellgro Catalog No. 30234-CI)
Individual clones were then characterized using the following cell-based assay for sodium-dependent glucose transport:
Inhibition of SGLT1 and SGLT2 activity was assessed in CHO K1 cells stably expressing either human SGLT1 or SGLT2, using the SGLT specific glucose analog methyl-glucopyranoside (Sigma Catalog No. M-9376). Cells were plated (45,000 cells/well) in white wall 96-well plates (COSTAR, Cat#3903) for 24 hours in growth medium, then a final concentration of 10 mM Na-Butyrate (ALDRICH Cat#30341-0) was added. The cells were incubated for 24 hours. […] The cells were then solubilized by adding 60 μl of MICROSCINT™20 and the Na-dependent ^14C-AMG uptake was quantified by measuring radioactivity. Plates were counted in a TopCount (Packard, Meriden, Conn.)

## OC[C@H]1O[C@@H](c2cc(Cc3ccc4c(c3)CC4)c(Cl)cc2O)[C@H](O)[C@@H](O)[C@@H]1O [Compound 8, (2S,3R,4R,5S,6R)-2-(5-(bicyclo[4.2.0]octa-1(6),2,4-trien-3-ylmethyl)-4-chloro-2-hydroxyphenyl)-6-(hydroxymethyl)oxane-3,4,5-triol]
  IC50: 1 nM

## [2H]C([2H])(c1ccc2c(c1)CC2)c1cc([C@@H]2O[C@H](CO)[C@@H](O)[C@H](O)[C@H]2O)c(O)cc1Cl [Compound 55, (2S,3R,4R,S,6R)-2-(5-[bicyclo[4.2.0]octa-1(6),2,4-trien-3-yl(dideuterium)methyl]-4-chloro-2-hydroxyphenyl)-6-(hydroxymethyl)oxane-3,4,5-triol]
  IC50: 1 nM
